Target: Retinal rod rhodopsin-sensitive cGMP 3',5'-cyclic phosphodiesterase subunit delta (Homo sapiens, UniProt O43924)
Assay: Inhibition of N-terminal His6-tagged PDEdelta (unknown origin) expressed in Escherichia coli BL21(DE3)-condon plus-RIL cells after 4 hrs by fluorescence polarization assay

The chains behind the UniProt entries cited, without tags or fusion partners. Where a name states a change or a piece, a line headed by the entry shows the natural chain unless it says otherwise.
UniProt O43924: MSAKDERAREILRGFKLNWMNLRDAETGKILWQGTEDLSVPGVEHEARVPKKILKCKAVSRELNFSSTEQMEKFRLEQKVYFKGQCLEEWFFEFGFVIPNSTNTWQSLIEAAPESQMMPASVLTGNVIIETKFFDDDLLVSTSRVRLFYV

SMILES: c1ccc(Cn2c(-c3ccc(OC[C@H](C4CCNCC4)n4c(-c5ccccc5)nc5ccccc54)cc3)nc3ccccc32)cc1
- IC50: 21 nM

Source: ChEMBL document CHEMBL4411282, “Fragment-based drug discovery of triazole inhibitors to block PDEδ-RAS protein-protein interaction” (Eur J Med Chem, 2019)
